Reference: patent US20260240847A1, “COMPOUNDS WITH ANTI-TUMOR ACTIVITY AGAINST CANCER CELLS BEARING TYROSINE KINASE INHIBITOR RESISTANT EGFR MUTATIONS” (BOARD OF REGENTS, THE UNIVERSITY OF TEXAS SYSTEM, priority 2019, published 2026)

Sequences of proteins named here, by UniProt entry; tags and fusion partners are left off. A line that says so, or that is headed by a name, gives the form on record, which may keep a tag or linker. Residues count along the entry.
UniProt P00533, 25-1210 G724S: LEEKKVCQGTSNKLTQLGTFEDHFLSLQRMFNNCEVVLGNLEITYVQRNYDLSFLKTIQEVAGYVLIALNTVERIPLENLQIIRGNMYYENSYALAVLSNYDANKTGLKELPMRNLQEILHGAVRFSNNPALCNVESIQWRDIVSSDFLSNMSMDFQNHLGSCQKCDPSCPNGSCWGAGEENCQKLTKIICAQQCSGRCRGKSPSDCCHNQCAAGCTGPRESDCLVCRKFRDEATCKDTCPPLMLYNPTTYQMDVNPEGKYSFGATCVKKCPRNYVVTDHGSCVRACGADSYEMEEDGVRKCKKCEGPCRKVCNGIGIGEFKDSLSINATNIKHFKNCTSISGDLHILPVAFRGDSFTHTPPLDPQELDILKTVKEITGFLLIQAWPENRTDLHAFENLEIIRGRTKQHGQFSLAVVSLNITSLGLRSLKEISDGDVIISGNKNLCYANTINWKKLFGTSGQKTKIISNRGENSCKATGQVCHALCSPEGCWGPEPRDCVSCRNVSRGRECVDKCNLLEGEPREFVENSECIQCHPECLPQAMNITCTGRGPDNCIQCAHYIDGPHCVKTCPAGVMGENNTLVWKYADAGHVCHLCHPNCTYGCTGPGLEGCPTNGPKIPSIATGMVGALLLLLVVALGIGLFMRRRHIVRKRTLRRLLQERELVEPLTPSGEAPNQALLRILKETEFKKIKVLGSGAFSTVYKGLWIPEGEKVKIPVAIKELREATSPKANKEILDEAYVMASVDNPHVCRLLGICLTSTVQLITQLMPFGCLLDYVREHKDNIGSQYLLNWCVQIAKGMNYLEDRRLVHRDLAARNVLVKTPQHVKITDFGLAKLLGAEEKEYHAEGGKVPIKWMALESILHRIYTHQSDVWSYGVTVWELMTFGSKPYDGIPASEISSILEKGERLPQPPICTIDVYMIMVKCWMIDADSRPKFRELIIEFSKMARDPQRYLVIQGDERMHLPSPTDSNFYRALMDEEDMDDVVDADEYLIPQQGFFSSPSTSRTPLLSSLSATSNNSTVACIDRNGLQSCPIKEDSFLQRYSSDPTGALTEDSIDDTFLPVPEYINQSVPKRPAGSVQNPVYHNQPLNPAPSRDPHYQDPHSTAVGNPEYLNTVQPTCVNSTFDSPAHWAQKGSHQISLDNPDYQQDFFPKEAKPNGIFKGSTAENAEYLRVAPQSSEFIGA
UniProt P00533, 25-1210 L718Q/L858R: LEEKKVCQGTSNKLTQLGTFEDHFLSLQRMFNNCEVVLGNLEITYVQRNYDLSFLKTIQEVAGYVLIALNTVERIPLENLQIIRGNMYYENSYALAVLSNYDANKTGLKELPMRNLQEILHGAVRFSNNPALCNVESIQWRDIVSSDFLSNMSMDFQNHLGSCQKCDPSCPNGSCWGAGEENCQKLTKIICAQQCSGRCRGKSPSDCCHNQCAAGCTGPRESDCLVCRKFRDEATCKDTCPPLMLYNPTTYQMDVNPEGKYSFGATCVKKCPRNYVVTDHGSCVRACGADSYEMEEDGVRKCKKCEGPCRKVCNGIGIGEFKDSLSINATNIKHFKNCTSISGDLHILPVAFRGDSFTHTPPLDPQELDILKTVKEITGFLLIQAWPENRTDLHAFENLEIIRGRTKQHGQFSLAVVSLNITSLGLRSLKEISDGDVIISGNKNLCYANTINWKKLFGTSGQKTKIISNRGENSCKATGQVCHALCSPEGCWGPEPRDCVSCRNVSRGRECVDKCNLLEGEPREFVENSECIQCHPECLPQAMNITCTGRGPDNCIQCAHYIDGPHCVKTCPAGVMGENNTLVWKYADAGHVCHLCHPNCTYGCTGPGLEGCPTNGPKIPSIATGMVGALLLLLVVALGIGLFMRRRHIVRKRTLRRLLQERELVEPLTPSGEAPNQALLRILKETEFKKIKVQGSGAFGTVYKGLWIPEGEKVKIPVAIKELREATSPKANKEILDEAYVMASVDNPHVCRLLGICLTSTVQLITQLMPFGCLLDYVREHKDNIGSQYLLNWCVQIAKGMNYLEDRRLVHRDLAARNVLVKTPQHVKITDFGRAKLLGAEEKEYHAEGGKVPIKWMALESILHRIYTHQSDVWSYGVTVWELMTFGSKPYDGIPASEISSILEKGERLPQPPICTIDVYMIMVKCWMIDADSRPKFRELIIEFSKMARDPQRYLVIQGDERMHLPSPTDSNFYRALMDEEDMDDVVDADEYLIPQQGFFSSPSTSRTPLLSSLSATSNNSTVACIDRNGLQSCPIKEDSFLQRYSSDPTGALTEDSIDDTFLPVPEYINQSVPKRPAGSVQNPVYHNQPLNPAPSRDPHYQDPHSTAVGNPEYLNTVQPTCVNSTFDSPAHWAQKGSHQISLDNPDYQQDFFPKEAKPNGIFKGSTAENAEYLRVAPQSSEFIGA
UniProt P00533, with tags, fused parts or gaps G724S/DUP771-771: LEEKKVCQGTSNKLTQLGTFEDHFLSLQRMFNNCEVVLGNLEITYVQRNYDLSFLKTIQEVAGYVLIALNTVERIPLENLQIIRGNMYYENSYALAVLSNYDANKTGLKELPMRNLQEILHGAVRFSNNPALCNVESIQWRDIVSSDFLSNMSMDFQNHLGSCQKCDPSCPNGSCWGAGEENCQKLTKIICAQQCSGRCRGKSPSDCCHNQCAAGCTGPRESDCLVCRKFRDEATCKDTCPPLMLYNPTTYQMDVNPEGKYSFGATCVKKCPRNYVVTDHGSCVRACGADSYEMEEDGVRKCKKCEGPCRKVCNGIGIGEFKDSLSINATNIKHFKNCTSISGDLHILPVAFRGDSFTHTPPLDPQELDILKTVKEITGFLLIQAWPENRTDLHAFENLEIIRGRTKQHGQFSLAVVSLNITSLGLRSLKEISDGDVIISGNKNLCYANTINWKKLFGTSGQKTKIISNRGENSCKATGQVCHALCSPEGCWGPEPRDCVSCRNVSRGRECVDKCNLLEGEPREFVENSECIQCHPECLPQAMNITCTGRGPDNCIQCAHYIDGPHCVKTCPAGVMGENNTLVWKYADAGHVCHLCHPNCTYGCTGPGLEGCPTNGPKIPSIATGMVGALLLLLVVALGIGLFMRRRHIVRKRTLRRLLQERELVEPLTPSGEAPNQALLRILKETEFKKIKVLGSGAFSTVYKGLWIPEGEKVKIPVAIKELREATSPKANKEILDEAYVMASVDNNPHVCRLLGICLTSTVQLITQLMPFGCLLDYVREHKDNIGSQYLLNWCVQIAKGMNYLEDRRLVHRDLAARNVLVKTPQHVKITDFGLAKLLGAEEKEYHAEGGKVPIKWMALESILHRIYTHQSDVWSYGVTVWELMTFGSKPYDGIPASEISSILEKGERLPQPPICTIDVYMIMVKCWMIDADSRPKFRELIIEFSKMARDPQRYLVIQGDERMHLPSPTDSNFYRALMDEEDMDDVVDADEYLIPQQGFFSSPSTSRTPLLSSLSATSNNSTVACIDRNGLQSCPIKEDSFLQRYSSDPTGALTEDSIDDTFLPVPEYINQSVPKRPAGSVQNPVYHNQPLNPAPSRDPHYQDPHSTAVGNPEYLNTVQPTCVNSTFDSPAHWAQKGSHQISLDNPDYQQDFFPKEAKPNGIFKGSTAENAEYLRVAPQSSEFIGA
UniProt P00533, with tags, fused parts or gaps DUP768-770: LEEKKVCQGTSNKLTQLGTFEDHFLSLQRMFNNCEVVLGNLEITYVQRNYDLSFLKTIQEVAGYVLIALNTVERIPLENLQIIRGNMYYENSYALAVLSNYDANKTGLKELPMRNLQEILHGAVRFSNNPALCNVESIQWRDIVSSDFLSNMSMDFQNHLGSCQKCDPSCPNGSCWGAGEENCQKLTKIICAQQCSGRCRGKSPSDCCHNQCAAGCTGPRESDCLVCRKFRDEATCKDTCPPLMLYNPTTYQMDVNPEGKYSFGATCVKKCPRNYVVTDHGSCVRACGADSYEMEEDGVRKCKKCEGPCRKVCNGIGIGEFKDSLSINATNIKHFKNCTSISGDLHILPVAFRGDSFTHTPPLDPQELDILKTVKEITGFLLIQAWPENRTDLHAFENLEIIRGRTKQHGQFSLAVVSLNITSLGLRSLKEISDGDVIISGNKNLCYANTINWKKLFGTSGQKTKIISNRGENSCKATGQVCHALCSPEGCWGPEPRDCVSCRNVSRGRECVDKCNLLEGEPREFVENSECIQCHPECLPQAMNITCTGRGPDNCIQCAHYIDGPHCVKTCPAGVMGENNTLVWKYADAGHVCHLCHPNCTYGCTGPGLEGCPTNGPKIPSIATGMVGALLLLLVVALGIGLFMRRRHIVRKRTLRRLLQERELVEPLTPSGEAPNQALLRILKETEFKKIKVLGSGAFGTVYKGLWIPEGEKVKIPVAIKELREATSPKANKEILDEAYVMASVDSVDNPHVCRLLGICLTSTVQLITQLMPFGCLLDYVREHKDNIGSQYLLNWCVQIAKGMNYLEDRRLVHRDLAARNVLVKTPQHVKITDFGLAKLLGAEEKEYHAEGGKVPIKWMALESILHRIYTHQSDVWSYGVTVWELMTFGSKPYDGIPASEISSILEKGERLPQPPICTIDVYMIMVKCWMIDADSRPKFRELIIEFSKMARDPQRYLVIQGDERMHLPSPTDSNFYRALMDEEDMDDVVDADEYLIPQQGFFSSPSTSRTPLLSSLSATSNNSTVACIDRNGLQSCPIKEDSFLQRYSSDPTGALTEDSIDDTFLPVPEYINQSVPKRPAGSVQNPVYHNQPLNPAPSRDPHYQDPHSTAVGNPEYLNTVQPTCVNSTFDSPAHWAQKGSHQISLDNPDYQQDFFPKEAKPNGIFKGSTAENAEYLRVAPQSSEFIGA
UniProt P00533, 25-1210 K754E: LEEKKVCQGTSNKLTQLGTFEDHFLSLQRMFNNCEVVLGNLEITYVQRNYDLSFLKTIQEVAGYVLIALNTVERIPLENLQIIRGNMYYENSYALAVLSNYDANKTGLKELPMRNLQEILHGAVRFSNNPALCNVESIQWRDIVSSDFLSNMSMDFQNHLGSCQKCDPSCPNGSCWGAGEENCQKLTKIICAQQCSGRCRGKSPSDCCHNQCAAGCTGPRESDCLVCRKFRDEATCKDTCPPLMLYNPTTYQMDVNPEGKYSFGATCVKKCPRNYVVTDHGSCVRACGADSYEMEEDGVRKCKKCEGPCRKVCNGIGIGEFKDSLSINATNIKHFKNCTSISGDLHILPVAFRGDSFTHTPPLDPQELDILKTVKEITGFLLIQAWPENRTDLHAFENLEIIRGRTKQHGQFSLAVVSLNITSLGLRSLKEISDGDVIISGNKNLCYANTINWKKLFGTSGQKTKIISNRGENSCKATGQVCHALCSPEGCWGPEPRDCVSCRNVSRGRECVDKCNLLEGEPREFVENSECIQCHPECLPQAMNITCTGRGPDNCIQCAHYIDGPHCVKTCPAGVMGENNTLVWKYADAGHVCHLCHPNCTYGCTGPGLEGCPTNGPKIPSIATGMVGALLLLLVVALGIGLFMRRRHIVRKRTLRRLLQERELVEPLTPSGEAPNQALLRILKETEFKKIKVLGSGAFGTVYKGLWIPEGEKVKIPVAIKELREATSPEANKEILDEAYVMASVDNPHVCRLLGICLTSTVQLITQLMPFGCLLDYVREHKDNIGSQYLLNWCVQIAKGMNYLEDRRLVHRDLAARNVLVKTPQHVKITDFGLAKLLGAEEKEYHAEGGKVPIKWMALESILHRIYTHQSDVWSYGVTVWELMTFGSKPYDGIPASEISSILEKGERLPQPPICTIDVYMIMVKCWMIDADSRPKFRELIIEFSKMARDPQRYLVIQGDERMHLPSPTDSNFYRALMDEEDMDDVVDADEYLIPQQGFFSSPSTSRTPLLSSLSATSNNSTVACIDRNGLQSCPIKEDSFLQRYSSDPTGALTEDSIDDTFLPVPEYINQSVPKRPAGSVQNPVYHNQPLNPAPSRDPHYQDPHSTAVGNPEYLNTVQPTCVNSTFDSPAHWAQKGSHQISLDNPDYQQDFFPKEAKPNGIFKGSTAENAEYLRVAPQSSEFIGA

What was measured:
Test in all cases: Ba/F3 cell viability, Cell Titer Glo
[1] = molecular target: EGFR G724S (Homo sapiens, UniProt P00533, G724S); conditions: read-out: IC50 Values; Ba/F3 cells expressing EGFR G724S, 72 hours
[2] = molecular target: EGFR L858R L718Q (Homo sapiens, UniProt P00533, L718Q/L858R); conditions: read-out: IC50 Values; Ba/F3 cells expressing EGFR L858R L718Q, 72 hours
[3] = molecular target: EGFR N771dupN G724S (Homo sapiens, UniProt P00533, DUP771-771/G724S); conditions: read-out: IC50 Values; Ba/F3 cells expressing EGFR N771dupN G724S, 72 hours
[4] = molecular target: EGFR S768dupSVD (Homo sapiens, UniProt P00533, DUP768-770); conditions: read-out: IC50 Values; Ba/F3 cells expressing EGFR S768dupSVD, 72 hours
[5] = molecular target: EGFR K754E (Homo sapiens, UniProt P00533, K754E); conditions: read-out: IC50 Values; Ba/F3 cells expressing EGFR K754E, 72 hours
[6] = molecular target: EGFR H773insNPH (Homo sapiens, UniProt P00533, INS773NPH); conditions: read-out: IC50 Values; Ba/F3 cells expressing EGFR H773insNPH, 72 hours
[7] = molecular target: EGFR L718Q (Homo sapiens, UniProt P00533, L718Q); conditions: read-out: IC50 Values; Ba/F3 cells expressing EGFR L718Q, 72 hours
[8] = molecular target: EGFR L718V (Homo sapiens, UniProt P00533, L718V); conditions: read-out: IC50 Values; Ba/F3 cells expressing EGFR L718V, 72 hours
[9] = molecular target: EGFR L861R (Homo sapiens, UniProt P00533, L861R); conditions: read-out: IC50 Values; Ba/F3 cells expressing EGFR L861R, 72 hours
[10] = molecular target: EGFR S720P (Homo sapiens, UniProt P00533, S720P); conditions: read-out: IC50 Values; Ba/F3 cells expressing EGFR S720P, 72 hours
[11] = molecular target: EGFR E709A (Homo sapiens, UniProt P00533, E709A); conditions: read-out: IC50 Values; Ba/F3 cells expressing EGFR E709A, 72 hours
[12] = molecular target: EGFR L858R G796S (Homo sapiens, UniProt P00533, G796S/L858R); conditions: read-out: IC50 Values; Ba/F3 cells expressing EGFR L858R G796S, 72 hours
[13] = molecular target: EGFR L718Q T790M (Homo sapiens, UniProt P00533, L718Q/T790M); conditions: read-out: IC50 Values; Ba/F3 cells expressing EGFR L718Q T790M, 72 hours
[14] = molecular target: EGFR Ex19del G724S (Homo sapiens, UniProt P00533, DEL746-750/G724S); conditions: read-out: IC50 Values; Ba/F3 cells expressing EGFR Ex19del G724S, 72 hours
[15] = molecular target: EGFR L858R S784F (Homo sapiens, UniProt P00533, L858R/S784F); conditions: read-out: IC50 Values; Ba/F3 cells expressing EGFR L858R S784F, 72 hours
[16] = molecular target: EGFR L747 K754del insATSPE (Homo sapiens, UniProt P00533, DEL747-749/K754E); conditions: read-out: IC50 Values; Ba/F3 cells expressing EGFR L747 K754del insATSPE, 72 hours
[17] = molecular target: EGFR G719A (Homo sapiens, UniProt P00533, G719A); conditions: read-out: IC50 Values; Ba/F3 cells expressing EGFR G719A, 72 hours
[18] = molecular target: EGFR L858R T790M L718V (Homo sapiens, UniProt P00533, L718V/L858R/T790M); conditions: read-out: IC50 Values; Ba/F3 cells expressing EGFR L858R T790M L718V, 72 hours
[19] = molecular target: EGFR Ex19delT790M (Homo sapiens, UniProt P00533, DEL746-750/T790M); conditions: read-out: IC50 Values; Ba/F3 cells expressing EGFR Ex19delT790M, 72 hours
[20] = molecular target: EGFR L858R/C797S (Homo sapiens, UniProt P00533, C797S/L858R); conditions: read-out: IC50 Values; Ba/F3 cells expressing EGFR L858R/C797S, 72 hours

For Cc1cc(C(=O)Nc2nc3cccc(Cl)c3n2[C@@H]2CCCCN(C(=O)/C=C/CN(C)C)C2)ccn1, the IC50 [1] was 127 nM, the IC50 [2] was 808 nM and the IC50 [3] was 439 nM. It also gave an IC50 [4] of 520 nM, an IC50 [5] of 61.6 nM and an IC50 [6] of 550 nM. It also gave an IC50 [7] of 1610 nM, an IC50 [8] of 1020 nM and an IC50 [9] of 14.5 nM. It also gave an IC50 [10] of 22.6 nM, an IC50 [11] of 175 nM and an IC50 [12] of 856 nM. It also gave an IC50 [13] of 411 nM, an IC50 [14] of 3020 nM and an IC50 [15] of 428 nM. It also gave an IC50 [16] of 1.55 nM, an IC50 [17] of 87.8 nM and an IC50 [18] of 336 nM. For the same molecule, the IC50 [19] was 16.4 nM and the IC50 [20] was 4490 nM.
